These results are taken from patent publication US20230201369A1 (THE TEXAS A&M UNIVERSITY SYSTEM, priority 2020, published 2023).

Data set [1] has as its system morphine-induced locomotion. The note with it: morphine 10 mg/kg s.c.
Another data set has as its system morphine-dependent mice. The note with it: 2 hours after 20 mg/kg morphine on day 7.

Read-outs that look alike come from different tables or passages of the source.

With `CN1CC[C@]23c4c5ccc(O)c4O[C@H]2[C@@H](O)C=C[C@H]3[C@H]1C5` [morphine], the “locomotor activity, minute 30 of BL vs minutes 56-60 post-morphine” value in data set [1] is recorded as “increased locomotor activity”.

On to `C=CCN1CC[C@]23c4c5ccc(O)c4O[C@H]2C(=O)CC[C@@]3(O)[C@H]1C5` [naloxone, 17-Allyl-4,5α-epoxy-3,14-dihydroxymorphinan-6-one], for which the “number of jumps in 30 minutes vs control group” value in the data set on morphine-dependent mice (1 mg/kg i.p.) and in the data set on morphine-dependent mice (5 mg/kg i.p.) was “jumped significantly more than the control group” in each case.
